Data on one molecule can be found in patent publication US20250251402A1, “METHODS OF DETECTING MOLECULAR AGGREGATES USING IMAGE CORRELATION SPECTROSCOPY (ICS)” (The General Hospital Corporation, priority 2022, published 2025).

Chains of the proteins cited; added tags and fusions are not shown. Residues count along the entry.
UniProt P09874, whole entry, species assumed: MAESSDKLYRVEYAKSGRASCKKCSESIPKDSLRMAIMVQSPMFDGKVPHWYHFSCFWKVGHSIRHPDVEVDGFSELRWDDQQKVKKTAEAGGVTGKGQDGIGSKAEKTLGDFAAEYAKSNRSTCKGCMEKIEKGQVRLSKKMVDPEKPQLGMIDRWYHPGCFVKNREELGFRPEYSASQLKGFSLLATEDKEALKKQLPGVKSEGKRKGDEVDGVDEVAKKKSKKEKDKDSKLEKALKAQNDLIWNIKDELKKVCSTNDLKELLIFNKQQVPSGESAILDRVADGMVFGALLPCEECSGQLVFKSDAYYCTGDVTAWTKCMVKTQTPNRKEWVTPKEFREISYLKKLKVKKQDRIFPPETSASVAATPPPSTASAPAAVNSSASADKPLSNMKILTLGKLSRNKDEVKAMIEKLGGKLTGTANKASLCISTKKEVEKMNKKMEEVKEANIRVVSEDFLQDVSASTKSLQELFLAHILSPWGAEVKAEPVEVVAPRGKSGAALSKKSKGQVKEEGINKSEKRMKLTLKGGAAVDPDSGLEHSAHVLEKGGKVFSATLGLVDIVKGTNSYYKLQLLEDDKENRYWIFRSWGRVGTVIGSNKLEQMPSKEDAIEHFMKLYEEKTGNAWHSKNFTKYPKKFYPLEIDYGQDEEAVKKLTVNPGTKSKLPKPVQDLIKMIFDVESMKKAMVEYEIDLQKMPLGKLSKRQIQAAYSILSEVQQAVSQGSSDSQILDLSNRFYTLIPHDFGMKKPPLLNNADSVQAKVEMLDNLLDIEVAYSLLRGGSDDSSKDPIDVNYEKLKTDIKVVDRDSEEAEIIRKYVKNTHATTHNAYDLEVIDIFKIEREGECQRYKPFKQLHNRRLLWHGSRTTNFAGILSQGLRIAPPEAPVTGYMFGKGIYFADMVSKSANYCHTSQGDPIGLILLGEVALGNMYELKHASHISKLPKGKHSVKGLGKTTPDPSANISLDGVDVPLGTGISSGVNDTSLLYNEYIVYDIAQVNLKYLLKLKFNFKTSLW
UniProt P09874, 2-1014: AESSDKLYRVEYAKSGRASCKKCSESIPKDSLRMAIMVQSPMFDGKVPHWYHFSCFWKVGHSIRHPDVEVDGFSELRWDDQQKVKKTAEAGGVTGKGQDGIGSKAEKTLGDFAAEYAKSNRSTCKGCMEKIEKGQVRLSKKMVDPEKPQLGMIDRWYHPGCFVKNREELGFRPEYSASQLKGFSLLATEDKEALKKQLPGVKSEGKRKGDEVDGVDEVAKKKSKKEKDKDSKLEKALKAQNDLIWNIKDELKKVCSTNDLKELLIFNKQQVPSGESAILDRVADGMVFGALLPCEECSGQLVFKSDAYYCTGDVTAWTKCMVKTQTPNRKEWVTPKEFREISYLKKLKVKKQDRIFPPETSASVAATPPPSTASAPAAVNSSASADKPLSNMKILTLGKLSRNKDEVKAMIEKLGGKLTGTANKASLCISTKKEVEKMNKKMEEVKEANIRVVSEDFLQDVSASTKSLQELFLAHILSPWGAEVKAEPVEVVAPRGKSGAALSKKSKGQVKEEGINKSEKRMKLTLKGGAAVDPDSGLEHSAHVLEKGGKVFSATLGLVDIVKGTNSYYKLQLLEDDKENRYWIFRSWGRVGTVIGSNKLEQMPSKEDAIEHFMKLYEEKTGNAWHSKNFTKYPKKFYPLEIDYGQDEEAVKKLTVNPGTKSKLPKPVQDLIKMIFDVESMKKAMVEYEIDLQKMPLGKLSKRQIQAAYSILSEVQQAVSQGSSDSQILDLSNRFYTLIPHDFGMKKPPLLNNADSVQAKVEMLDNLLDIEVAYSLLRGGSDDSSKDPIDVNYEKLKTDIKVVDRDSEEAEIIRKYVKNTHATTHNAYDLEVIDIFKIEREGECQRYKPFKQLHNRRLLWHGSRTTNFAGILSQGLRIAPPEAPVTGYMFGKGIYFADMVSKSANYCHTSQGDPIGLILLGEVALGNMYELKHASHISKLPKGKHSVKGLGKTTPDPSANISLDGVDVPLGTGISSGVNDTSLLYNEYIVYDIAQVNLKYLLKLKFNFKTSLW

Experiment [1] concerns the target T1, PARP1 (Homo sapiens, UniProt P09874). The settings on record: average of previous measurements; cited from earlier work.
In experiment [2] the target is PARP (Homo sapiens, UniProt P09874). The settings on record: HT1080, 1 μM PARPi, 500 nM fluorescent olaparib.
For experiment [3], the target named is T1, PARP1. The settings on record: actual rate multiplied by 10^−7 for the stochastic model.
For experiment [4], the target named is PARP1-DNA (Homo sapiens, UniProt P09874). The settings on record: from previous findings; cited from earlier work.
The target of experiment [5] is T1, PARP1. Description: PARP1 trapping by chromatin fractionation in HT1080 cells. The settings on record: HT1080, 1 μM PARPi overnight, five clinical PARPi. Type of experiment: cell-based.

On to `Cn1ncnc1[C@H]1c2n[nH]c(=O)c3cc(F)cc(c23)N[C@@H]1c1ccc(F)cc1` [talazoparib], for which, in experiment [1], the “ka (trap): association constant of PARPi for PARP1” value is 360000 M⁻¹ s⁻¹ and the “kd (trap): dissociation of PARPi from PARP1(-DNA)” value was 8e-05 s⁻¹. The “Apparent dissociation constant (koff) of PARPi in live cells” value in experiment [2] is “values similar to those previously determined in purified protein”. Moreover, the “p.ka_trap: association of PARPi to PARP1, corrected rate” value in experiment [3] is 0.036 M⁻¹ s⁻¹. The “kd (rel PARPi): dissociation constant of PARPi-PARP1 from DNA” value in experiment [4] is 0.00252 s⁻¹. Further, in experiment [5], the “PARP1 trapping normalized to DMSO control” value is given as “most distinct difference in trapping”.
